Laboratory results reported in patent publication US7612071B2, “Compositions and methods employing aminopterin” (Syntrix Biosystems, Inc., priority 2004, dated 2009).

Assays:
[1] = test system: T-lineage acute lymphoblastic leukemia (ALL); details: peripheral blasts and bone marrow infiltrates in T-lineage ALL, n=7
[2] = test system: standard and high-risk ALL; details: for Therapeutic Component: Percentage effective (no evidence of a disease manifestation): greater than 12 months treatment, AMT 4 mg/m^2/wk high risk ALL (n=20), MTX 100 mg/m^2/wk standard risk ALL (n=20)

SMILES: CN(Cc1cnc2nc(N)nc(N)c2n1)c1ccc(C(=O)N[C@@H](CCC(=O)O)C(=O)O)cc1 [MTX, methotrexate, reference compound]
- Therapeutic Component: Antifolate dose [1]: >5000 mg/m^2/wk:
- Therapeutic Component: Percentage effective (complete remission or stable disease) ([1]; AMT 4 mg/m^2/wk, MTX >5000 mg/m^2/wk in the same patients): 0% effective in
- Therapeutic Component: Antifolate dose ([1]; listed as methotrexate): > 5,000 mg/m^2/wk
- Therapeutic Component: Antifolate dose ([2]; AMT high risk ALL (n=20), MTX standard risk ALL (n=20), Table V): 100 mg/m^2/wk:
- Therapeutic Component: Antifolate dose with same efficacy as MTX at 100 mg/m^2/wk ([2]; AMT high risk ALL (n=20), MTX standard risk ALL (n=20), Table VI): 100 mg/m^2/wk
- Therapeutic Component: Percentage effective (no evidence of a disease manifestation) [2]: 100% effective at
- Therapeutic Component: Percentage effective (no evidence of a disease manifestation) ([2]; listed as methotrexate): 100%

Like-named read-outs stand apart in the source and are kept apart here.
